# Measured values as given in ChEMBL document CHEMBL1143349, “Novel non-peptide nociceptin/orphanin FQ receptor agonist, 1-[1-(1-Methylcyclooctyl)-4-piperidinyl]-2-[(3R)-3-piperidinyl]-1H-benzimidazole: design, synthesis, and structure-activity relationship of oral receptor occupancy in the brain for orally potent antianxiety drug” (J Med Chem, 2009).
# By UniProt entry, the sequences of proteins in these tests, tags left out.
# UniProt P35372, whole entry, looked up: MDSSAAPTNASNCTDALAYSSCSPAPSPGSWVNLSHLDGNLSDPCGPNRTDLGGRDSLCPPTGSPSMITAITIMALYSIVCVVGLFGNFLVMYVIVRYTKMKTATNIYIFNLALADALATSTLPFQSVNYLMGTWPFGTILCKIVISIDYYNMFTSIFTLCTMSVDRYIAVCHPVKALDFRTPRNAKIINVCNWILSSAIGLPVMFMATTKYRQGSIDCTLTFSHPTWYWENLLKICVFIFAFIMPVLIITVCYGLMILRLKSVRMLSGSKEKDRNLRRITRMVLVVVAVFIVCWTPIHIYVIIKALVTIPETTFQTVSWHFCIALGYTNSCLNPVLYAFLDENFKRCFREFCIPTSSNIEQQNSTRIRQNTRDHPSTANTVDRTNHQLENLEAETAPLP
# How the values were obtained:
# Mu-type opioid receptor [1] = target: T1, Mu-type opioid receptor (Homo sapiens, UniProt P35372); assay: Displacement of [3H]DAMGO from human mu opioid receptor expressed in CHOK1 cells; type: cell-based; settings: cho-k1
# Mu-type opioid receptor [2] = target: T1, Mu-type opioid receptor; settings: cho-k1
smiles,measurement,setting,value
CC1(N2CCC(n3c([C@H]4CCCNC4)nc4ccccc43)CC2)CCCCCCC1,Ki,Mu-type opioid receptor [1],0.59 nM
same,EC50,Mu-type opioid receptor [2],23 nM
